Test system: HT29 xenograft
Test: HT-29 human colon carcinoma xenograft mouse model (Example 50)
Settings: in vivo

## O=c1[nH]cc(F)c(=O)[nH]1 [Compound 5FU, 5-fluoro-2,4(1H,3H)-pyrimidinedione, reference compound]
  % Inhibition vs Group 4: 59.3%
